Consider nine compounds from ChEMBL document CHEMBL4699543, “Preparation and evaluation of soluble epoxide hydrolase inhibitors with improved physical properties and potencies for treating diabetic neuropathic pain” (Bioorg Med Chem, 2020).

The series in a line: Lipophilicity, logP of compound at 100 uM incubated for 90 mins by HPLC analysis. The series is classed as physicochemical.

Usually logP stands for the decadic logarithm of the partition coefficient of the neutral form, usually between octanol and water.

In turn, `Cc1occc1C(=O)N1CCC(NC(=O)Nc2ccc(C(F)(F)F)cc2)CC1` yielded a logP at […], 100 µM of 4.19.

As to `O=C(Nc1ccc(OC(F)(F)F)cc1)NC1CCN(C(=O)c2cc[nH]c2)CC1`, the logP at […], 100 µM stood at 3.34.

`O=C(Nc1ccc(OC(F)(F)F)cc1)NC1CCN(C(=O)c2ccoc2)CC1`: the logP at […], 100 µM came out at 3.63.

`O=C(Nc1ccc(OC(F)(F)F)cc1)NC1CCN(C(=O)C2=COCC2)CC1`: the logP at […], 100 µM is 3.49.

`O=C(Nc1ccc(C(F)(F)F)cc1)NC1CCN(C(=O)c2ccoc2)CC1` yielded a logP at […], 100 µM of 3.5.

For `Cc1ccoc1C(=O)N1CCC(NC(=O)Nc2ccc(OC(F)(F)F)cc2)CC1`, the logP at […], 100 µM came to 4.48.

`O=C(Nc1ccc(OC(F)(F)F)c(F)c1)NC1CCN(C(=O)C2CCCOC2)CC1` (centres undefined) registered a logP at […], 100 µM of 4.09.

As to `O=C(Nc1ccc(C(F)(F)F)cc1)NC1CCN(C(=O)C2CCOCC2)CC1`, the logP at […], 100 µM was 3.16.

In the case of `O=C(Nc1ccc(OC(F)(F)F)cc1)NC1CCN(C(=O)C2CCCOC2)CC1` (racemic), the logP at […], 100 µM was determined as 3.42.
